From patent US20050196743A1 come the findings set out here.

Chains of the proteins cited; added tags and fusions are not shown. Lines headed by an entry give the natural chain unless they say otherwise; changes in a name come on top.
UniProt P41146: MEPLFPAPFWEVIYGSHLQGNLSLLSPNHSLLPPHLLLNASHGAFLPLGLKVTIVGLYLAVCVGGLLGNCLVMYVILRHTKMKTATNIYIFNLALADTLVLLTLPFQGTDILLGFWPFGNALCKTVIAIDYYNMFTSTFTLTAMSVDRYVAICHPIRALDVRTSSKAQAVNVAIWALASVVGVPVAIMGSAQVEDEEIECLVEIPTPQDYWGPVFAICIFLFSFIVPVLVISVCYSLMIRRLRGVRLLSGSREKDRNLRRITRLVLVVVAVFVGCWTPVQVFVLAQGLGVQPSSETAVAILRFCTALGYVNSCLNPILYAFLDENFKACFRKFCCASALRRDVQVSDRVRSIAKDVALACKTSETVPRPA
UniProt Q13519: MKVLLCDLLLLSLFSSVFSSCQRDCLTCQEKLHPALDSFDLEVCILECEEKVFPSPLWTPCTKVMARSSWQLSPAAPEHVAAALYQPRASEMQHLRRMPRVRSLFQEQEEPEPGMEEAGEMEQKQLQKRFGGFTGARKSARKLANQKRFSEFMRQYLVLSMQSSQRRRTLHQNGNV

For this test, the target named is nociceptin receptor (human) (UniProt P41146). Briefly: cell-based or functional assay.

For “nociceptin (from UniProt Q13519 130-146) (peptide)”, the EC50, M (ligand-dependent induction of cell surface Aga2-HA) amounted to 1.2 µM; the HRP activity (ELISA of DTT-extracted Aga2-HA) at 0 M ligand was 0.097; the HRP activity (ELISA of DTT-extracted Aga2-HA) at 1.13 × 10^-7 M ligand worked out at 0.097; the HRP activity (ELISA of DTT-extracted Aga2-HA) at 4 × 10^-6 M ligand turned out to be 0.37. The HRP activity (ELISA of DTT-extracted Aga2-HA) at 5 × 10^-7 M ligand was found to be 0.24 and the Induction factor (cell surface Aga2-HA) was found to be 4.2.
